{"source": "patent US7547760B2", "about": "“Peptides and chemical compound for inhibition of SHP2 function” (West Virginia University, priority 2006, dated 2009)", "origin": "cited, not measured here", "system": "Tyr kinase domains of EGFR and HER2", "conditions": "patients treated with standard chemotherapy in combination with Iressa", "data": [{"compound": "COc1cc2ncnc(Nc3ccc(F)c(Cl)c3)c2cc1OCCCN1CCOCC1", "note": "[Iressa, gefitinib]", "values": [{"measurement": "overall survival rates versus chemotherapy alone", "result": "did not show any significant increase in overall survival rates"}]}]}
